Laboratory results as given in patent US10550102B2, “Indane and indoline derivatives and the use thereof as soluble guanylate cyclase activators” (NOVARTIS AG, priority 2014, dated 2020).

Chains of the proteins cited; added tags and fusions are not shown.
UniProt Q02153, whole entry: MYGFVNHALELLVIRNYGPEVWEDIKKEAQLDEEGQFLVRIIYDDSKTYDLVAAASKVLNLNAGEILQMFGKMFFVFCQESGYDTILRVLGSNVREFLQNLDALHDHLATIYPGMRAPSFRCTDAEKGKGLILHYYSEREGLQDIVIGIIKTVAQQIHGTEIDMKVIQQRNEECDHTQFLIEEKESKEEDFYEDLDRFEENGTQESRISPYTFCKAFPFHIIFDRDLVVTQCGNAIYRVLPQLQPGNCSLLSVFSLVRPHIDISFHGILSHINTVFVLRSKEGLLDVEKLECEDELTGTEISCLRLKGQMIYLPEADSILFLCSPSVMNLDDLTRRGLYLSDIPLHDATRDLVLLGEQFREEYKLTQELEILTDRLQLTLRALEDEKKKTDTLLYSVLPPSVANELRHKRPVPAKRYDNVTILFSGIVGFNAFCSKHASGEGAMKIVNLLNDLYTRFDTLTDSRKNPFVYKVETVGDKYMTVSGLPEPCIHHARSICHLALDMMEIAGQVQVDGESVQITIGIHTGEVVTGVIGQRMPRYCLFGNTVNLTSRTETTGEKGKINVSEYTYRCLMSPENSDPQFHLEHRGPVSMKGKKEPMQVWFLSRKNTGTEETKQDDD
UniProt Q02108, whole entry partner: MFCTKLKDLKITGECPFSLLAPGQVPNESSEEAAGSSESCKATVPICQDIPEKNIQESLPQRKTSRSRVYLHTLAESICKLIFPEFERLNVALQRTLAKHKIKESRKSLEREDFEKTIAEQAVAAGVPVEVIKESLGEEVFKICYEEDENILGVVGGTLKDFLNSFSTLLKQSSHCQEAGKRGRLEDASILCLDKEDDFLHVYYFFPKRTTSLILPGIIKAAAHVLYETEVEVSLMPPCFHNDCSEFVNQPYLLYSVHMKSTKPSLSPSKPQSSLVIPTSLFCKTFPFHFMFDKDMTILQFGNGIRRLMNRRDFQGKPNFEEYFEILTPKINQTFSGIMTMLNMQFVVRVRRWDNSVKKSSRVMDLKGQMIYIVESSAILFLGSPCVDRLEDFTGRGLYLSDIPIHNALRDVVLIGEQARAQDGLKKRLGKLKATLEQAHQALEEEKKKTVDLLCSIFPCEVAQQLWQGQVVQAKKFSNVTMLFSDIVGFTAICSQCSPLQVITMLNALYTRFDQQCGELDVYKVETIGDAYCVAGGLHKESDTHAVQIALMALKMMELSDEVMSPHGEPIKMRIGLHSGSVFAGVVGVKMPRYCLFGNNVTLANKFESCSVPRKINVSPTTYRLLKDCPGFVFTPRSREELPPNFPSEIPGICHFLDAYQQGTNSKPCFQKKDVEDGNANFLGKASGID

Target: soluble guanylate cyclase (human GUCYA3 and GUCYB3) overexpressed in CHO cells (Homo sapiens (Human), UniProt Q02153)
Assay: CHO cellular assay (cGMP production, Cisbio cGMP HTRF kit)
Type: cell-based
Conditions: CHO GUCY clone 8E10, cGMP production, assay buffer with 1 mM IBMX and 20 uM ODQ, 1 h room temperature; minimum quantification limit 0.5 nM (listed 0.5 nM means ≤0.5 nM)

pEC50: ≥ 9.30
Compound: CCc1cc(O[C@H]2CCc3cccc(-c4cccc(-n5ncc(C(=O)O)c5C)n4)c32)ccc1C1CCN(C(=O)C2CC2)CC1

pEC50: −log10 of the molar value.
